Measured values reported in ChEMBL document CHEMBL5506056, “Discovery of Novel Azaindoles as Potent and Selective PI3Kδ Inhibitors for Treatment of Multiple Sclerosis” (J Med Chem, 2024).

Key:
Type in all cases: cell-based
Conditions in all cases: CD3-positive T cell
[1] = biological target: T1, Phosphatidylinositol 4,5-bisphosphate 3-kinase catalytic subunit delta isoform (Mus musculus) (UniProt O35904); test: Inhibition of PI3Kdelta in mouse CD3-positive T cells assessed as decrease in mTOR phosphorylation at Ser2448 at 3 uM by Western blot analysis
T1 sequence (whole entry): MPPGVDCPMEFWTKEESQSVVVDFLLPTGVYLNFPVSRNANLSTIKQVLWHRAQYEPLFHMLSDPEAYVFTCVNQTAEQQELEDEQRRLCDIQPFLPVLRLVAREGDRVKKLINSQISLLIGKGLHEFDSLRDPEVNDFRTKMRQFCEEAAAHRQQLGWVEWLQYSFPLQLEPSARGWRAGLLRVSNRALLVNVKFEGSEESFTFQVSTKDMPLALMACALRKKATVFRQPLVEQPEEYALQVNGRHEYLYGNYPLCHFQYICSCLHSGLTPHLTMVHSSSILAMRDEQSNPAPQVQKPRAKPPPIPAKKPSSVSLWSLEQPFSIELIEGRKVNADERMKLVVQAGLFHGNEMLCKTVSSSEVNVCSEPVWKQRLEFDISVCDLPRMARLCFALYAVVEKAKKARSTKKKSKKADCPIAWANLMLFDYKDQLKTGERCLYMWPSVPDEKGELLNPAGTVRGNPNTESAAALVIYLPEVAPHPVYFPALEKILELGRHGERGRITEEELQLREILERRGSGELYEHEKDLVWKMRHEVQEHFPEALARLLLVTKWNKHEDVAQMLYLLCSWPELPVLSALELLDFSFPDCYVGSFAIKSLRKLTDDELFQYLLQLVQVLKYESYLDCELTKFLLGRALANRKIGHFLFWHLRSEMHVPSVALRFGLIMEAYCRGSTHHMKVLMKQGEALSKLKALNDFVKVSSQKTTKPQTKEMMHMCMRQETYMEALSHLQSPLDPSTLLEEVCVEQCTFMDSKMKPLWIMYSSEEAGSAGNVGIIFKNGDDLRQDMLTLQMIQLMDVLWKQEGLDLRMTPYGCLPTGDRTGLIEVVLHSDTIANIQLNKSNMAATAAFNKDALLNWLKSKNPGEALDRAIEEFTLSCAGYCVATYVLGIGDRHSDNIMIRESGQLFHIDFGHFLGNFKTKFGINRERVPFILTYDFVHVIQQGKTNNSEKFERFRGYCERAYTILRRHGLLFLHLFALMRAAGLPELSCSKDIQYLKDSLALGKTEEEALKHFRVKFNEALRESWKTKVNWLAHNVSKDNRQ

[2] = biological target: T1, Phosphatidylinositol 4,5-bisphosphate 3-kinase catalytic subunit delta isoform (Mus musculus); test: Inhibition of PI3Kdelta in mouse CD3-positive T cells assessed as decrease in S6 phosphorylation at Ser235/236 at 3 uM by Western blot analysis
[3] = biological target: T1, Phosphatidylinositol 4,5-bisphosphate 3-kinase catalytic subunit delta isoform (Mus musculus); test: Inhibition of PI3Kdelta in mouse CD3-positive T cells assessed as decrease in AKT phosphorylation at Ser473 at 3 uM by Western blot analysis

Measured: inhibition

C[C@H](Nc1nc(N)nc(N)c1C#N)c1cn(-c2cccnc2)c2cc(Cl)cnc12
active: all assays above

Active and inactive are the calls of the source.
